The results in this text go back to patent publication US12139488B2, “Pyrido[3,2-d]pyrimidine compounds uses thereof for treating a proliferative disease” (Universite de Montreal, priority 2021, dated 2024).

The structures appear in SMILES notation. pEC50, pIC50: −log10 of the molar value.

In test [1] the test system is pERK in SW620 cells (KRAS-G12V). Kind of test: Phospho-ERK inhibition (AlphaLISA), SW620. The note with it: for SW620 pERK % Ymin: SW620, value in parentheses; for pIC50: read-out: SW620 pERK IC50, SW620. The protocol: (§1) All cancer cell lines (A375, A101D, A2058, RKO, HT29 SK-MEL 30, IPC298, HepG2, HCT-116, Lovo, SWV620, SW480, NCI-H358, NCI-H2122, Calu-6, NCIH2087, NCIH1755, NCIH1666 and Mewo) were obtained from ATCC and cultured in RPMI-1640 medium (Gibco) supplemented with 5% heat inactivated fetal bovine serum (FBS, Wisent) at 37° C. under 5% CO2. Cells were maintained in T175 flasks (Greiner). They were passaged by removing the culture medium, washing once in 10 mL of room temperature Phosphate Buffered Saline (PBS; Wisent) and incubating at 37° C. with 2 mL of 0.05% Trypsin (Thermo-Fisher). Trypsin was then inactivated by adding complete growth medium and the cells were then replated in a T175 culture dish at the appropriate dilution. All cell lines were routinely tested for mycoplasma contamination. Tissue type and mutational status of each cell line can be found in Table B.
AlphaLISA® SureFire® Ultra™ p-ERK 1/2 (Thr202/Tyr204) analysis was conducted on cells plated in 100 μL of complete RPMI-1640 growth medium in 96-well flat-bottomed transparent dishes (Costar) at a density indicated in Table C. Cells were maintained overnight at 37° C. under 5% CO2 before treatment with compounds' dilution series for one hour. The cell density in cells/cm^2 corresponds to cell number divided by the area of one well of a 96-well plate ([…]).
In a dilution series 100 μL/well of test substance dilution prepared in complete RPMI-1640 growth media was added to the cells. The dilution series is selected so that ten concentrations cover a range from 10 μM to 0.33 nM. If necessary the initial concentration of 10 μM is increased to 100 μM or lowered to 1 μM (as in the case of A375 and H1666 cells, which are generally more sensitive to the compounds) and further dilution is carried out accordingly. The final concentration of DMSO in the assay is set at 0.5%.
After treatment, media was removed and cells were lysed in 50 μL of 1× AlphaScreen Ultra Lysis Buffer (Perkin Elmer). The AlphaLISA® SureFire® Ultra™ p-ERK 1/2 (Thr202/Tyr2O4) (PerkinElmer) reactions were performed with 5 μL of cell lysate according to the manufacturer's specifications in 384-well proxyplates (Perkin Elmer) followed by overnight incubation of the reactions at room temperature in a humidified chamber. After completion of the reactions, the signals were recorded on an EnVision plate reader (Perkin Elmer) using built in AlphaLISA® settings.
The effect of each compound dilution on the pERK signal was expressed in % inhibition and calculated as follows. An internal 100% inhibition control ([…] trametinib, cat #HY-10999; MedChem Express; CAS #871700-17-3) was included in each plate and used as a measure of pERK background. First, the value obtained for trametinib was subtracted from each data point. The average of DMSO (vehicle) controls (set as 0% inhibition) was established and used to calculate % inhibition: % inhibition=100*(1-((pERK signalcompound)/(pERK signalDMSO)))
The ability of each compound to inhibit pERK signal was expressed as an IC50 value obtained by plotting the inhibition values for each data point of a dilution series and fitting the obtained curves using a log(agonist) versus response-variable slope (four parameters) function using GraphPadPrism (V7.0) or Dotmatics Screening Ultra platform.
When present, paradoxical pERK induction is inferred from the negative % inhibition values observed in the pERK IC50 curves of a compound.
Background: Alpha assays give light when donor and acceptor beads are brought close together.

A further test relates to RKO cells (BRAF V600E). Kind of test: Proliferation inhibition (CellTiter-Glo), RKO. The following applies: read-out: RKO Prolif. EC50, 3 days. The protocol: as §1
CellTiter-Glo® viability analysis was conducted on cells plated in 100 μL of complete RPMI-1640 growth medium in 96-well flat-bottomed white opaque plates (Greiner or Croning) at a density indicated in Table E (for each CCL, number of cells plated per well of a 96-well plate to perform the CellTiter-Glo® cell viability assay). The cell density in cells/cm^2 would correspond to cell number divided by the area of one well of a 96-well plate (0.32 cm^2). Cells were maintained overnight at 37° C. under 5% CO2 before treatment with compounds' dilution series for 3 days.
In a dilution series 100 μL/well of test substance dilution prepared in complete RPMI-1640 growth media was added to the cells plated initially in 100 μL of growth media. The dilution series is selected so that ten concentrations cover a range from 10 μM to 0.33 nM. If necessary (as in the case of A375 cells, which were more sensitive to the compounds) the initial concentration of 10 μM is lowered to 1 μM and further dilution is carried out accordingly. The final concentration of DMSO in the assay is set at is 0.5%.
After 3 days of incubation, the growth media were removed by aspiration and 60 μL of diluted CellTiter-Glo® reagent (10 μL CellTiter-Glo® reagent+50 μL of PBS) was added to each well. Cells were allowed to lyse and to equilibrate in CellTiter-Glo® reagent by 5 min incubation on a plate shaker followed by 10 min incubation at room temperature. Luminescence signals were then acquired on a Synergy Neo2 plate reader (Biotek).
The effect of each compound dilution on the proliferation of cancer cell lines was expressed in % inhibition and calculated as follows. An internal 100% inhibition control (1 μM of trametinib; cat #HY-10999; MedChem Express; CAS #871700-17-3) was included in each plate and used as a measure of CellTiter-Glo® signal background. The value obtained for trametinib was subtracted from each data point. The average of DMSO (vehicle) controls (set as 0% inhibition) was established and used to calculate % inhibition: % inhibition=100*(1−((CellTiter-Glo® signalcompound)/(CellTiter-Glo® signalDMSO)))
The ability of each compound to inhibit proliferation was expressed as a EC50 value obtained by plotting the effect values for each data point of a dilution series and fitting the obtained curves using a log(agonist) versus response-variable slope (four parameters) function using GraphPadPrism (V7.0) or Dotmatics Screening Ultra platform.
A general note: In ATP-based viability assays light output follows the ATP content of the culture.

Consider `O=S(=O)(Nc1ccc(F)c(Nc2ncnc3ccc(-n4cnc5c(N6CCC(O)(C(F)(F)F)CC6)cccc54)nc23)c1F)c1cccc(Cl)c1Cl`, for which, in test [1], the “SW620 pERK % Ymin” value was −13% and the pIC50 (usually the negative decadic logarithm of the IC50, by convention in mol/L) was 6.52 to 7.52. The pEC50 (usually the EC50 on a negative log10 scale, so that one unit is a factor of ten) with RKO cells (BRAF V600E) is > 7.52.
On the same counts, the results for `COCCOc1cccc2c1nnn2-c1ccc2ncnc(Nc3c(F)ccc(NS(=O)(=O)c4cccc(Cl)c4Cl)c3F)c2n1` are 29%, 6.52 to 7.52 and > 7.52.
With `CS(=O)(=O)C1CCN(c2cccc3c2nnn3-c2ccc3ncnc(Nc4c(F)ccc(NS(=O)(=O)c5cccc(Cl)c5Cl)c4F)c3n2)CC1`, in test [1], the “SW620 pERK % Ymin” value stood at 6% and the negative-log IC50 (pIC50) was 6.52 to 7.52. For the same compound, the negative-log EC50 (pEC50) in the test on RKO cells (BRAF V600E) was > 7.52.
On the same counts, the results for `O=S(=O)(CCCN1CCOCC1)c1cn(-c2ccc3ncnc(Nc4c(F)ccc(NS(=O)(=O)c5cccc(Cl)c5Cl)c4F)c3n2)c2ccccc12` are −12%, 6.52 to 7.52 and > 7.52.
On the same counts, the results for `COc1ccc(S(=O)(=O)Nc2ccc(F)c(Nc3ncnc4ccc(-n5cc(S(=O)(=O)N(C)CCN(C)C)c6ccccc65)nc34)c2F)c(C)c1F` are −18%, 6.52 to 7.52 and > 7.52.
`CCC1(O)CCN(c2cccc3c2ncn3-c2ccc3ncnc(Nc4c(F)ccc(NS(=O)(=O)c5cccc(Cl)c5Cl)c4F)c3n2)CC1`: in test [1], the “SW620 pERK % Ymin” value was −4% and the negative logarithm of the IC50 (pIC50) is 6.52 to 7.52. Moreover, the pEC50 in the test with RKO cells (BRAF V600E) is > 7.52.
In the same order, the values of `CN(CCN1CCOCC1)S(=O)(=O)c1cn(-c2ccc3ncnc(Nc4c(F)ccc(NS(=O)(=O)c5cccc(Cl)c5Cl)c4F)c3n2)c2ccccc12` are −12%, 6.52 to 7.52 and > 7.52.
For the compound `Cc1c(F)cccc1S(=O)(=O)Nc1ccc(F)c(Nc2ncnc3ccc(-n4cnc5c(-c6cccnc6)cccc54)nc23)c1F`, in test [1], the “SW620 pERK % Ymin” value was −12% and the pIC50 is 6.52 to 7.52. The pEC50 in the test on RKO cells (BRAF V600E) is > 7.52.
In the case of `Cc1c(Cl)cccc1S(=O)(=O)Nc1ccc(F)c(Nc2ncnc3ccc(-n4cnc5c(N)cccc54)nc23)c1F`, in test [1], the “SW620 pERK % Ymin” value is listed as −6% and the pIC50 was 6.52 to 7.52. The pEC50 in the test on RKO cells (BRAF V600E) is > 7.52.
Consider `O=S(=O)(Nc1ccc(F)c(Nc2ncnc3ccc(-n4nnc5ccccc54)nc23)c1F)c1cccc(Cl)c1Cl`, for which, in test [1], the “SW620 pERK % Ymin” value is on record as 4% and the negative-log IC50 (pIC50) is 6.52 to 7.52. The negative logarithm of the EC50 (pEC50) in the test on RKO cells (BRAF V600E) was > 7.52.
On the same counts, the results for `Cc1c(Cl)cccc1S(=O)(=O)Nc1ccc(F)c(Nc2ncnc3ccc(-n4cc(C(=O)N5CCN(C)CC5)c5ccccc54)nc23)c1F` are 3%, 6.52 to 7.52 and > 7.52.
Regarding `O=S(=O)(Nc1ccc(F)c(Nc2ncnc3ccc(-n4cnc5c(N6CCC7(CCCC7)CC6)cccc54)nc23)c1F)c1cccc(Cl)c1Cl`, in test [1], the “SW620 pERK % Ymin” value came to 3% and the negative logarithm of the IC50 (pIC50) is 6.52 to 7.52. The negative logarithm of the EC50 (pEC50) in the test on RKO cells (BRAF V600E) was > 7.52.
On the same counts, the results for `Cc1c(Cl)csc1S(=O)(=O)Nc1ccc(F)c(Nc2ncnc3ccc(-n4cc(S(=O)(=O)N(C)CCN(C)C)c5ccccc54)nc23)c1F` are −5%, 6.52 to 7.52 and > 7.52.
On to `Cc1c(F)cccc1S(=O)(=O)Nc1ccc(F)c(Nc2ncnc3ccc(-n4nc(C(=O)N(C)Cc5cccnc5)c5ccccc54)nc23)c1F`, for which the pEC50 with RKO cells (BRAF V600E) is > 7.52.
